Earlier results, collected in patent US5624668A, “Iron dextran formulations” (Luitpold Pharmaceuticals, Inc., priority 1995, dated 1997).

Conditions: in vivo; cited from earlier work

## iron dextran
  absorption of most of the remaining iron: 3-4 weeks
  absorption of the major portion of an intramuscular injection: ≤ 72 h
  bioavailability of the dose: almost the entire dose of iron dextran remains bioavailable
  half life: 5 to more than 20
  iron lost via the urinary or alimentary pathways: Negligible amounts
  renal excretion: not excreted by the kidneys
  staining from inadvertent deposition in subcutaneous and cutaneous tissues: usually resolves or fades within several weeks or months
